Laboratory results taken from patent US20240408215A1, “USE OF DIAZIRINE LINKER FOR DRUG CONJUGATES” (HELMHOLTZ ZENTRUM MUNCHEN - DEUTSCHES FORSCHUNGSZENTRUM FUR …, priority 2021, published 2024).

Conditions: LC-MS after 20 min UV light irradiation (FIG. 1)

Substance: (2S,2′S)-bis(2-(6-methoxynaphthalen-2-yl)propanoate) [naproxen dimer conjugate]
- release of the native form of Naproxen upon UV-light irradiation: demonstrated
